# AlphaSeq binding of Ab-95 light chain variants to a spike HR2 peptide

The measurements come from Engelhart et al. 2022 (doi:10.1038/s41597-022-01779-4) through the FLAb antibody collection.

Binding partner: SARS-CoV-2 spike HR2 peptide, sequence PDVDLGDISGINAS.

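Phage display of a naive human antibody library on the peptide gave the parent. AAYL52 was designed without a model: most single CDR substitutions and a random sample of double and triple ones. In AlphaSeq, yeast of one mating type display the scFv and yeast of the other type display the target. Pairs that bind mate more often; barcode pairs of the diploids are counted by sequencing. A regression on co-assayed BCL2-family reference pairs converts the normalised counts of each replicate to an apparent Kd. Mating was done three times.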

Each scFv is VH, a 15-residue (Gly4Ser)3 linker, VL, as in the parent Ab-95, and differs from it in the CDRs of the light chain only.
VH: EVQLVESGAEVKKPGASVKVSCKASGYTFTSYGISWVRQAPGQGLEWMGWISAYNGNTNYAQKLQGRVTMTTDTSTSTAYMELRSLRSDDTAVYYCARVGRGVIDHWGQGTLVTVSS
VL: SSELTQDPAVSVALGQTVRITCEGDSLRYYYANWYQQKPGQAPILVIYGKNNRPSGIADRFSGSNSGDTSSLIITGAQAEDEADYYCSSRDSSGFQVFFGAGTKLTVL

The whole VL of each variant is written out. The read-out is the apparent dissociation constant on a log10 scale (nM): the lower, the stronger. Averages over replicates are reported, and they cover detected replicates only. "ND" means that the variant was in the library but no mating with the target was seen in that replicate; the authors take this as a sign of poor binding, and no number exists.

For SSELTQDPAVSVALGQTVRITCEGDSNRYYYRNWYQQKPGQAPILVIYGKNNRPFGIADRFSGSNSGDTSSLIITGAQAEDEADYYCSSRDSSGFQVFFGAGTKLTVL, the assay gave 3.08, 3.19, 4.42 (mean 3.56; controls 4 of 9).
For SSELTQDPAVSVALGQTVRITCHGDSLRYYYANWYQQKPGQAPILVIYGKNNRPSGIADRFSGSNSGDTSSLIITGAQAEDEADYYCSSRDSSFDQVFFGAGTKLTVL, the assay gave 3.04, 2.40, 2.26 (mean 2.57; controls 2 of 9).
For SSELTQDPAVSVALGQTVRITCEGDPLRYYYAGWYQQKPGQAPILVIYGKNNRPSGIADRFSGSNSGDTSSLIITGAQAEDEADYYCSSRDSSGRQVFFGAGTKLTVL, the assay gave 3.67, 3.03, 2.89 (mean 3.20; controls 3 of 9).
For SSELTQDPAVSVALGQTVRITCEGDSLRSYYVNWYQQKPGQAPILVIYGKNNRPSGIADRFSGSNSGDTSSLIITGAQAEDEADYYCSSRDSSMFQVFFGAGTKLTVL, the assay gave 3.86, 2.81, 3.12 (mean 3.26; controls 4 of 9).
For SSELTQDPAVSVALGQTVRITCEGDSLRWYYWFWYQQKPGQAPILVIYGKNNRPSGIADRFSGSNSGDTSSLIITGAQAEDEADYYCSSRDSSGFQVFFGAGTKLTVL, the assay gave 3.01, 4.22, ND (mean 3.61; controls 4 of 9).
For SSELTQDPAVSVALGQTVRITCEGDSLRYYYANWYQQKPGQAPILVIYGKNNRPSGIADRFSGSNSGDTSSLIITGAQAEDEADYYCSSDDSHGFQVSFGAGTKLTVL, the assay gave 2.59, 3.07, 3.91 (mean 3.19; controls 4 of 9).
For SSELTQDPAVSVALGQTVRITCEGDSLRYYYANWYQQKPGQAPILVIYGKNHRPSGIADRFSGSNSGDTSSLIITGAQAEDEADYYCSVRDVSGFQVFFGAGTKLTVL, the assay gave 3.56, ND, 3.44 (mean 3.50; controls 0 of 9).
For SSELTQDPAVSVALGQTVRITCEGDSLRYYFANWYQQKPGQAPILVIYGKNNRDSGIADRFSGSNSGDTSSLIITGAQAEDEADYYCSSRDSSGFQVFFGAGTKLTVL, the assay gave 3.02, 2.61, 2.68 (mean 2.77; controls 3 of 9).
For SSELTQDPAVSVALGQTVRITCEGDSLRYYYANWYQQKPGQAPILVIYGKWNRESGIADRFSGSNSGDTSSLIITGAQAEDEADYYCSSRDSSGFQVFFGAGTKLTVL, the assay gave ND, ND, 3.19 (controls 2 of 9).
For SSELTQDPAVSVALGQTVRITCEGDSLRYTYANWYQQKPGQAPILVIYGKQNRPSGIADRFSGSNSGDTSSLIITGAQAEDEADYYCSSRDSSGHQVFFGAGTKLTVL, the assay gave 2.23, 2.02, 1.19 (mean 1.81; controls 6 of 9).
For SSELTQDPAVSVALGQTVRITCEGDSLRYYYANWYQQKPGQAPILVIYGKHNRPSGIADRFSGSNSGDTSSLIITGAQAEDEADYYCTSRDSSGEQVFFGAGTKLTVL, the assay gave 4.02, 4.55, ND (mean 4.28; controls 3 of 9).
For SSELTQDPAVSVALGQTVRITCEGDSLIYYYANWYQQKPGQAPILVIYGKNCRPSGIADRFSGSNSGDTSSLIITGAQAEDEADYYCSSRDSSTFQVFFGAGTKLTVL, the assay gave ND, ND, 4.58 (controls 1 of 9).
For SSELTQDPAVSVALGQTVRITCEGDSLRMYYANWYQQKPGQAPILVIYGKNNRQNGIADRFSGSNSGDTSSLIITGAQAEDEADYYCSSRDSSGFQVFFGAGTKLTVL, the assay gave 2.78, 3.56, 3.39 (mean 3.24; controls 1 of 9).
For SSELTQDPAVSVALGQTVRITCEGSSLRCYYANWYQQKPGQAPILVIYGKNNRPSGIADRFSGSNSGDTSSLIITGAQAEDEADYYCPSRDSSGFQVFFGAGTKLTVL, the assay gave 4.44, 3.70, 3.83 (mean 3.99; controls 6 of 9).
For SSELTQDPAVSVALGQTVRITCEGDSLRYYYANWYQQKPGQAPILVIYGKDNRSSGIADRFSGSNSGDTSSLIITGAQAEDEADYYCSSRDSSDFQVFFGAGTKLTVL, the assay gave 3.86, 3.11, 3.81 (mean 3.60; controls 4 of 9).
For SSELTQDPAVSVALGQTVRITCEEYSLRYYYANWYQQKPGQAPILVIYGKNNRPSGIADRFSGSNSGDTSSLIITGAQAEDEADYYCRSRDSSGFQVFFGAGTKLTVL, the assay gave ND, 3.41, 4.25 (mean 3.83; controls 2 of 9).
For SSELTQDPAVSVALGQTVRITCYGDSNRYYYANWYQQKPGQAPILVIYGKNNRPSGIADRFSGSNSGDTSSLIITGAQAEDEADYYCSSRDSSGPQVFFGAGTKLTVL, the assay gave 2.61, 2.87, 4.22 (mean 3.24; controls 6 of 9).
For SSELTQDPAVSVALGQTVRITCEGDSLRYYYARWYQQKPGQAPILVIYGKNNRPSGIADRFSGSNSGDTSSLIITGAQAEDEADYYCSSIDSSGFMVFFGAGTKLTVL, the assay gave 4.31, 4.80, 3.68 (mean 4.26; controls 4 of 9).
For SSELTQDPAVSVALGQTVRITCEGDSLRYYYANWYQQKPGQAPILVIYGKNNVISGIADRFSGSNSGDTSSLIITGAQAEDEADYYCSSRDSSGFQYFFGAGTKLTVL, the assay gave 4.17, 3.15, 3.53 (mean 3.62; controls 2 of 9).
For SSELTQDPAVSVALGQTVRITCEADSLRYYYANWYQQKPGQAPILVIYGWNNRHSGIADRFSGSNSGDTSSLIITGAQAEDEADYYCSSRDSSGFQVFFGAGTKLTVL, the assay gave ND, ND, ND (controls 1 of 9).
For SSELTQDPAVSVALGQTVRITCIGDSLRYYYARWYQQKPGQAPILVIYGKNNRPSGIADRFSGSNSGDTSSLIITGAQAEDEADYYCISRDSSGFQVFFGAGTKLTVL, the assay gave 4.09, ND, ND (controls 2 of 9).
For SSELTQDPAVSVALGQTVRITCPGDSHRYYYANWYQQKPGQAPILVIYVKNNRPSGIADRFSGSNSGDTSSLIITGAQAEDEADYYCSSRDSSGFQVFFGAGTKLTVL, the assay gave ND, ND, ND (controls 0 of 9).
For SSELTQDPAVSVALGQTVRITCEGDSLRYCLANWYQQKPGQAPILVIYGKNNRPSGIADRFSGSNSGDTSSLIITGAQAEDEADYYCSSRDSSGFWVFFGAGTKLTVL, the assay gave 2.06, 2.26, 1.85 (mean 2.06; controls 1 of 9).
For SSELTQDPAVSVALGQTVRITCECDSLRYYYANWYQQKPGQAPILVIYGKINRPSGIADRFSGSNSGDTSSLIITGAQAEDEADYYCSIRDSSGFQVFFGAGTKLTVL, the assay gave 3.98, ND, ND (controls 3 of 9).
For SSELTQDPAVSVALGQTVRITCEGDSLRGYYGNWYQQKPGQAPILVIYGKNNRPSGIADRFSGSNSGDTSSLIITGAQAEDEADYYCSSRASSGFQVFFGAGTKLTVL, the assay gave 1.97, 1.63, 1.17 (mean 1.59; controls 3 of 9).

For reference, 3 entries of the list once more:

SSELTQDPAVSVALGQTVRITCEGDSLRYYYANWYQQKPGQAPILVIYGKWNRESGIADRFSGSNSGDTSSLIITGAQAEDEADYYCSSRDSSGFQVFFGAGTKLTVL: ND, ND, 3.19 (controls 2 of 9).
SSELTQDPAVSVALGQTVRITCEGDSLRYYYANWYQQKPGQAPILVIYGKNHRPSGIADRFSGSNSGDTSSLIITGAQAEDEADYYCSVRDVSGFQVFFGAGTKLTVL: 3.56, ND, 3.44 (mean 3.50; controls 0 of 9).
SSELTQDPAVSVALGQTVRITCEEYSLRYYYANWYQQKPGQAPILVIYGKNNRPSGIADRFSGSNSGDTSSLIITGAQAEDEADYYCRSRDSSGFQVFFGAGTKLTVL: ND, 3.41, 4.25 (mean 3.83; controls 2 of 9).

Background: pairings of library AAYL52 with three empty control strains gave a value in 28% of cases (median 3.91, 5th percentile 2.90). Values in that range, when seen in few replicates, are hard to tell from nonspecific mating. For each scFv, signals with the empty controls are counted beside the result.